Values quoted from earlier work in patent US20140038836A1, “Novel Pharmacogene Single Nucleotide Polymorphisms and Methods of Detecting Same” (priority 2012, published 2014).

Sequences of proteins named here, by UniProt entry; tags and fusion partners are left off.
UniProt P08913, whole entry: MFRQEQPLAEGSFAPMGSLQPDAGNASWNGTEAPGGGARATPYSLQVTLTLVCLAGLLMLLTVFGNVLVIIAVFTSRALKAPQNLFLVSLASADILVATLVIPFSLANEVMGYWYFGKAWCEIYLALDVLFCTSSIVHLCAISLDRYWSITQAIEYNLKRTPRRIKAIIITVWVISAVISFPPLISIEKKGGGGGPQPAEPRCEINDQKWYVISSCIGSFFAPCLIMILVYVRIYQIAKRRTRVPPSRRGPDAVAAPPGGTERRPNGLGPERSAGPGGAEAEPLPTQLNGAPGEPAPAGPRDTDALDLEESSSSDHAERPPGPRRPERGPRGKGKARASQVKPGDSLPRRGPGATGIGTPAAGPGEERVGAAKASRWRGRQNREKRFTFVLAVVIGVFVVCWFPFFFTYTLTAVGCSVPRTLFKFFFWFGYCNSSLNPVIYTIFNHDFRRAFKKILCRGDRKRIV

Molecular target: ADRA2A (alpha2A subtype alpha-2-adrenergic receptor) (Homo sapiens, UniProt P08913)
Conditions: antagonists of the alpha2A receptor

## COc1cc2nc(N3CCN(C(=O)c4ccco4)CC3)nc(N)c2cc1OC [prazosin]
  rank order for antagonists: yohimbine>phentolamine=mianserine>chlorpromazine=spiperone=prazosin>propanolol>alprenolol=pindolol
